Here are results for two substances from US20150368333A1.

Like-named read-outs stand apart in the source and are kept apart here.

For assay [1], the target named is TNF alpha (species not given) (UniProt P01375). Put plainly: cell-based or functional assay.
Assay [2] shares this target. Kind of assay: cell-based or functional assay. This is another data set of the same source.

In the case of BPC1496 (antibody), in assay [1], the IC50, L929 neutralisation assay (cell viability) was 1.18 µg/mL and the IC50, TNFα-induced IL-6 release assay (whole blood) amounted to 0.64 nM.

Regarding BPC1494 (antibody), the IC50, TNFα-induced IL-6 release assay (whole blood) in assay [2] and in assay [1] was 0.62 nM each time. Further, in assay [1], the IC50, L929 neutralisation assay (cell viability) came to 1.2 µg/mL.
